Results from US20230293639A1, “SYSTEMS, DEVICES, COMPOSITIONS, AND METHODS FOR TREATING DIABETES” (Abvance Therapeutics, Inc., priority 2020, published 2023).
Like-named read-outs stand apart in the source and are kept apart here.

Key:
[1] = not given; remark: listed apart in the source

## insulin
5 mM glutamic acid with 1% glycine, 0.5% sucrose, 0.005% Tween 20, pH 4.4
  solubility: less than 3 mg/mL
10 mM glutamate buffer with 1% CHAPS, pH 4.4
  solubility: greater than 4 mg/mL
10 mM glutamate buffer with 5% nicotinamide, pH 5.1
  solubility: less than 3 mg/mL
10 mM glutamic acid with 0.67% CHAPS and 1.67% nicotinamide, pH 4.7
  solubility: greater than 4 mg/mL
10 mM glutamic acid with 1% CHAPS, pH 3.9
  solubility: greater than 4 mg/mL
10 mM glutamic acid with 1.67% nicotinamide, pH 4.5
  solubility: less than 3 mg/mL
10 mM glutamic acid with 5% nicotinamide, pH 4.9
  solubility: less than 3 mg/mL
20 mM glycine, pH 3.5
  solubility: ≤ 3230 µg/mL
30 mM glutamic acid, pH 3.3
  solubility: 3500 µg/mL
50 mM PBS pH 7.03, no excipient
  solubility: less than 2.5 mg/mL
50 mM PBS pH 8.03, no excipient
  solubility: greater than 5 mg/mL
50 mM glutamine with 6.75% HP-β-CD and 3% sucrose, pH 4
  solubility: ≤ 3230 µg/mL
50 mM glycine with 6.75% HP-β-CD and 3% sucrose, pH 4
  solubility: ≤ 3230 µg/mL
50 mM histidine with 1% CHAPS, pH 4
  solubility: 3530 µg/mL
AB with 50 mM glutamine, 50 mM arginine, pH 4.94
  solubility: less than 1 mg/mL
AB with 50 mM glutamine, 50 mM histidine, pH 4.93
  solubility: less than 1 mg/mL
AB with 1% CHAPS, pH 4.24
  solubility: greater than 6 mg/mL
AB with 5% nicotinamide, pH 4.70
  solubility: greater than 4 mg/mL
PBS with 50 mM cysteine, pH 7.4
  solubility: less than 2 mg/mL
PBS with 50 mM histidine, pH 7.69
  solubility: greater than 6 mg/mL
PBS with 1% CHAPS, pH 7.60
  solubility: greater than 6 mg/mL
PBS with 1% poloxamer 188, pH 7.7
  solubility: less than 2 mg/mL
PBS with 5% nicotinamide, pH 7.53
  solubility: greater than 6 mg/mL
PBS with 5% vitamin E TPGS, pH 7.32
  solubility: less than 2 mg/mL
PBS with 5% vitamin E TPGS, pH 7.8
  solubility: less than 2 mg/mL
PBS with 10% HP-β-CD, pH 7.42
  solubility: less than 2 mg/mL
PBS with 10% M-β-CD, pH 7.55
  solubility: less than 2 mg/mL
Tris buffer (TB) pH 8.03
  solubility: greater than 5 mg/mL
Acetate buffer (AB) pH 3.65, no excipient
  solubility: greater than 5 mg/mL
Acetate buffer (AB) pH 4.02, no excipient
  solubility: greater than 5 mg/mL
Aqueous buffer systems comprising less than 30% co-solvents
  solubility (target solubility achieved): greater than 3.5 mg/mL
Citrate buffer (CB) pH 5.02
  solubility: less than 3 mg/mL
Citrate buffer (CB) pH 6.01
  solubility: less than 3 mg/mL
Each of the arginine and glycine solutions, FIG. 7
  solubility: ≤ 3230 µg/mL
Phosphate buffer (PB) pH 6.04
  solubility: less than 3 mg/mL
Phosphate buffer (PB) pH 7.03
  solubility: less than 3 mg/mL
Phosphate buffer (PB) pH 8.03
  solubility: greater than 5 mg/mL
Various acidic glutamate buffer solutions pH 3.5-5.1 with excipient, FIG. 5
  solubility (up to): ≤ 5000 µg/mL
Various aqueous solutions of glutamic acid, glycine or histidine with excipient, FIG. 6
  solubility (up to): ≤ 3500 µg/mL
Various solutions of arginine (pH 7.7) or glycine (pH 3.5-7.8) with excipient, FIG. 7
  solubility (up to): ≤ 3500 µg/mL
[1]; 33.3% NMP and 66.7% of 50 mM glycine with 1% CHAPS
  solubility: 2360 µg/mL
[1]; 33.3% NMP, 33.3% of 2% CHAPS, and 33.4% of 30 mM glutamic acid
  solubility: 3470 µg/mL
[1]; DMSO (non-aqueous solvent)
  solubility: greater than 8 mg/mL
[1]; NMP (non-aqueous solvent)
  solubility: greater than 8 mg/mL
[1]; each of the acidic solvents comprising 0-33% HCl, 33-67% glutamic acid, 0-67% DMSO
  solubility: greater than or equal to 2.67 mg/mL
[1]; glycerol (non-aqueous solvent)
  solubility: less than 2 mg/mL
[1]; propylene glycol (non-aqueous solvent)
  solubility: less than 2 mg/mL
[1]; solvents comprising methanol, glycine pH 4, glutamic acid pH 3.3, NMP, CHAPS, FIG. 9
  solubility (up to): ≤ 3300 µg/mL
